## Yeast mating assay 1: variants of the scFv Ab-14

Source: Engelhart et al. 2022 (doi:10.1038/s41597-022-01779-4), MIT Lincoln Laboratory and A-Alpha Bio; data file from the FLAb repository.

Target peptide (SARS-CoV-2 spike, HR2 region): PDVDLGDISGINAS

Parent: Ab-14, a human scFv built as VH, a (GGGGS)3 linker, VL. Only the CDRs of the heavy chain vary.
VH: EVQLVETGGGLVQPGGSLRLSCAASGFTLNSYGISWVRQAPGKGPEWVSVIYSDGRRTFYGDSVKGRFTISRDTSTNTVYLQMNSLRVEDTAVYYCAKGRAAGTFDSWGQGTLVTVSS
VL: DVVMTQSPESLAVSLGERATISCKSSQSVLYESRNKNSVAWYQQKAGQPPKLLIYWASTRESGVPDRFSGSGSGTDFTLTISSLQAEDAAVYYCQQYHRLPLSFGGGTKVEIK

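The parent was found by panning a naive human phage display library on the peptide. AAYL49 was designed without a model: most single CDR substitutions and a random sample of double and triple ones. AlphaSeq pools MATa yeast showing the antibodies with MATalpha yeast showing the peptide. The frequency of each diploid, read from paired DNA barcodes, reflects how well the two displayed proteins bind. Each replicate has its own calibration line, from reference interactions of the BCL2 family. Mating was done three times.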

The parent's heavy chain CDRs are GFTLNSYGIS, VIYSDGRRTFYGDSVK, GRAAGTFDS; each variant's own CDRs replace them letter for letter.
The read-out is the apparent dissociation constant on a log10 scale (nM): the lower, the stronger.
Replicates are averaged; those with no signal do not enter the mean.
Where no diploid with the target was found in that replicate, the entry reads "ND": below detection, most likely a poor binder, though not proof of it.
Three control strains display no target. For library AAYL49, 15% of the pairings with them gave a signal, with a median of 4.06 and one signal in twenty below 2.83, so weak values seen in few replicates may be background. The control count says in how many pairings with the empty strains this scFv gave a signal, with their mean in brackets.

| CDR-H1 | CDR-H2 | CDR-H3 | replicates, log10 nM | log10 Kd (nM), mean | control signals |
|---|---|---|---|---|---|
| GFTLNSYGIS | VIYSDGARTTYGDSPK | GRAAGTFDS | ND / ND / ND | ND | 0 of 9 |
| GFTLNSYGIS | VIYSDGRRTFYAYSVK | GRNAGTFDS | 1.46 / 1.24 / 1.60 | 1.43 | 1 of 9 (2.77) |
| WFTLNSYGIS | VNYSDGRRTFYGDSVK | GRAAGTFDV | ND / ND / ND | ND | 0 of 9 |
| TFTLNSYGIS | VIYSDGRRTFYGQSVK | GRAAGTFDS | ND / 1.37 / ND | 1.37 | 0 of 9 |
| GFTLNSYGIS | VIYSRGRRTFYGDSVK | GRWAGTFDS | 5.02 / 3.53 / ND | 4.27 | 5 of 9 (3.75) |
| GFTLNSYGIL | VIYSDGGITFYGDSVK | GRAAGTFDS | ND / ND / ND | ND | 3 of 9 (4.23) |
| GFTLNSYGIS | VIYSDGRRVFYGFSVK | GQAAGTFDS | ND / ND / ND | ND | 0 of 9 |
| GFTQMSYDIS | VIYSDGRRTFYGDSVK | GRAAGTFDS | ND / ND / ND | ND | 4 of 9 (4.43) |
| GFTLNSYGIS | VIYSDGRRTFYGDSVL | GRKAGTFDS | 2.61 / 2.40 / 2.91 | 2.64 | 4 of 9 (4.44) |
| GFTLNFYGIS | VIYSDGRRTFWGDSVK | GRCAGTFDS | 2.43 / ND / ND | 2.43 | 0 of 9 |
| GFTKNSYGIS | VISSDGNRTFYGDSVK | GRAAGTFDS | ND / 5.36 / ND | 5.36 | 6 of 9 (4.30) |
| GFTLCSYGIS | VIYSDGIRTFYGDSLK | GRAAGTFDS | 5.18 / ND / ND | 5.18 | 1 of 9 (4.65) |
| GFTLNSYGIS | VIYSDGRRTFYTDDVK | GNAAGTFDS | -0.05 / 0.29 / 0.03 | 0.09 | 0 of 9 |
| GFTLNSYGID | VIYSDGRRTFYGDSVK | GRAAGTFWH | ND / ND / ND | ND | 0 of 9 |
| GFTLNSYGIS | VRYSDGRRTFYGDSVK | GRQCGTFDS | 4.23 / ND / 4.34 | 4.29 | 3 of 9 (3.89) |
| GFFLNNYGIS | VIYSDGRRTFYGDSVK | GRAAGTFDS | 1.29 / 1.44 / 1.96 | 1.56 | 0 of 9 |
| GFTLNSYGIS | VIESDGRRTFYGDSVK | GRAAGTFDS | 4.77 / ND / ND | 4.77 | 3 of 9 (4.25) |
| LFTENSYGIS | VIYSDGRRTFWGDSVK | GRAAGTFDS | 4.24 / ND / 3.66 | 3.95 | 4 of 9 (4.84) |
| GFTLNSYGIS | FIYSDGRRTFYGDSVS | CRAAGTFDS | ND / ND / ND | ND | 0 of 9 |
| GFTLNSYGIS | VIQSDGRRTFYGDTVK | GRAAGTFDP | ND / 3.69 / ND | 3.69 | 4 of 9 (3.69) |
| GFTLNPYGIS | VNYSDGRRTFYGDSVK | GVAAGTFDS | ND / ND / ND | ND | 0 of 9 |
| GFTLNSYGIS | VIYSDGRRTFYGDSTC | GRAAGTFDL | ND / 3.95 / ND | 3.95 | 3 of 9 (3.93) |
| GHTLNSYGIS | VIYSDGRRTFYGDSVK | GRAKGTFDS | 0.39 / 0.68 / 0.51 | 0.53 | 2 of 9 (3.66) |
| GFTLNPYGIS | EIYSDGRRTFYGDSVC | GRAAGTFDS | ND / 3.30 / ND | 3.30 | 2 of 9 (3.74) |
| GFTMNSYGIS | VIYSDGRRTFWGDSVK | GRAAGTRDS | ND / ND / ND | ND | 0 of 9 |
| GFTLNSYGIS | VYYSDGRRTFSGDSVK | GRAADTFDS | 2.73 / ND / ND | 2.73 | 0 of 9 |
| LFTLNSYGIS | VIYSDGRRTFYGDSVK | GRAAGTRFS | ND / 5.36 / ND | 5.36 | 3 of 9 (4.59) |
| GFTLNSYGIS | VIYGDGRRLYYGDSVK | GRAAGTFDS | 2.57 / 2.02 / 2.50 | 2.36 | 0 of 9 |
| GFTLNSYGIS | VIYSDGNRTFYGHSVR | GRAAGTFDS | 1.90 / 2.34 / 2.42 | 2.22 | 1 of 9 (3.39) |
| GFTLNSYGIS | VIYSDGTRTFYGDSVK | GRAAGTFDS | 0.94 / 1.33 / 1.13 | 1.13 | 0 of 9 |
| GFTLNSYGIS | VIYSDGCRTFIGDSVK | GRAAGTFQS | ND / ND / 5.06 | 5.06 | 3 of 9 (4.42) |
| GTTLNSYGIS | VIYSDGRRTFYGDSQK | GRAAGTFPS | ND / ND / ND | ND | 0 of 9 |
| GFTLCSQGIS | VIYSDGRRTFYGDSVK | GRAFGTFDS | ND / 3.21 / 3.97 | 3.59 | 1 of 9 (3.57) |
| GFWLNSYGIS | VIYCDGERTFYGDSVK | GRAAGTFDS | ND / ND / 4.27 | 4.27 | 2 of 9 (4.25) |
| GFTDNSYGIS | VWYSDGRRTFYGDSVK | GRAAGTNDS | ND / ND / ND | ND | 0 of 9 |
| GNTLNSYGIS | VNYSDGRRTMYGDSVK | GRAAGTFDS | 4.34 / ND / ND | 4.34 | 3 of 9 (4.09) |
| GFTFNSYGIS | VIYSDGRRTFYGDVVK | GRAAGTYDS | 4.35 / ND / ND | 4.35 | 1 of 9 (3.89) |
| GFTLNSYGFS | VIYSDGRRTFYGDSVK | GRDAGTKDS | ND / 5.18 / ND | 5.18 | 1 of 9 (3.08) |
| GFTLNSYGDT | VIYSDGRRTFYGDAVK | GRAAGTFDS | ND / ND / 5.11 | 5.11 | 1 of 9 (3.58) |
| GFTLNSYGIS | VIDSDGRRTFYGHSVK | GRAAGTFDL | ND / ND / ND | ND | 0 of 9 |
| GFILNSYGIS | VIGSDGRRTFVGDSVK | GRAAGTFDS | ND / ND / ND | ND | 0 of 9 |
| GFTLNSYGIS | AEYSDGRRTFYKDSVK | GRAAGTFDS | ND / ND / ND | ND | 1 of 9 (3.40) |
| GFTLNSDGIS | SIYSDGRRTFYGDSVK | GRAAGTQDS | ND / ND / 2.44 | 2.44 | 0 of 9 |
| GFTLNSYGIS | VIASDGRRTFYFDSVK | GYAAGTFDS | ND / ND / ND | ND | 0 of 9 |
| GFTWNSYGIS | VIYSDGRRTFYGDWVK | GRAAGTFDD | 2.67 / ND / 3.42 | 3.04 | 2 of 9 (3.90) |
| LFTLNSYGIS | VIYVDGRRTFYGDSVK | GRAAGTFES | ND / ND / ND | ND | 0 of 9 |
| GFTLNSYGYR | VIYMDGRRTFYGDSVK | GRAAGTFDS | ND / ND / ND | ND | 0 of 9 |
| GFTLNSYGES | VIYSDGRRTFYGDSVK | DRGAGTFDS | 5.05 / ND / 5.38 | 5.21 | 2 of 9 (3.36) |

A selection of 5 entries from above:

{"CDR-H1": "GFTLNSYGIS", "CDR-H2": "VIYSDGTRTFYGDSVK", "CDR-H3": "GRAAGTFDS", "replicates, log10 nM": "0.94 / 1.33 / 1.13", "log10 Kd (nM), mean": "1.13", "control signals": "0 of 9"}
{"CDR-H1": "TFTLNSYGIS", "CDR-H2": "VIYSDGRRTFYGQSVK", "CDR-H3": "GRAAGTFDS", "replicates, log10 nM": "ND / 1.37 / ND", "log10 Kd (nM), mean": "1.37", "control signals": "0 of 9"}
{"CDR-H1": "GFTQMSYDIS", "CDR-H2": "VIYSDGRRTFYGDSVK", "CDR-H3": "GRAAGTFDS", "replicates, log10 nM": "ND / ND / ND", "log10 Kd (nM), mean": "ND", "control signals": "4 of 9 (4.43)"}
{"CDR-H1": "WFTLNSYGIS", "CDR-H2": "VNYSDGRRTFYGDSVK", "CDR-H3": "GRAAGTFDV", "replicates, log10 nM": "ND / ND / ND", "log10 Kd (nM), mean": "ND", "control signals": "0 of 9"}
{"CDR-H1": "GFTLNSYGIS", "CDR-H2": "VIYSDGRRVFYGFSVK", "CDR-H3": "GQAAGTFDS", "replicates, log10 nM": "ND / ND / ND", "log10 Kd (nM), mean": "ND", "control signals": "0 of 9"}